Molecular target: Human A2a Adenosine Receptor (Homo sapiens, UniProt P29274)
Test: Human adenosine A2a receptor competition binding assay
Settings: read-out: A2a Ki; [3H]-SCH 58261 displacement, human A2a membranes
Experimental: Human Adenosine A2a and A1 Receptor Competition Binding Assay Protocol
A2a: Human A2a Adenosine Receptor membranes, Catalog #RB-HA2a, Receptor Biology, Inc., Beltsville, Md. Dilute to 17 μg/100 μl in membrane dilution buffer (see below).
Membrane dilution buffer: Dulbecco's Phosphate Buffered Saline (Gibco/BRL)+10 mM MgCl2.
Compound Dilution Buffer: Dulbecco's Phosphate Buffered Saline (Gibco/BRL)+10 mM MgCl2 supplemented with 1.6 mg/ml methyl cellulose and 16% DMSO. Prepared fresh daily.
A2a: [3H]-SCH 58261, custom synthesis, AmershamPharmacia Biotech, Piscataway, N.J. Stock is prepared at 1 nM in membrane dilution buffer. Final assay concentration is 0.5 nM.
A2a: To determine non-specific binding, add 100 nM CGS 15923 (RBI, Natick, Mass.). Working stock is prepared at 400 nM in compound dilution buffer.
Prepare 1 mM stock solutions of compounds in 100% DMSO. Dilute in compound dilution buffer. Test at 10 concentrations ranging from 3 μM to 30 pM. Prepare working solutions at 4× final concentration in compound dilution buffer.
Perform assays in deep well 96 well plates. Total assay volume is 200 μl. Add 50 μl compound dilution buffer (total ligand binding) or 50 μl CGS 15923 working solution (A2a non-specific binding) or 50 μl NECA working solution (A1 non-specific binding) or 50 μl of drug working solution. Add 50 μl ligand stock ([3H]-SCH 58261 for A2a, [3H]-DPCPX for A1). […]

- Ki: 17.6 nM
Compound: Nc1nc2ccccc2c2nn(-c3ccccc3)c(=O)n12

— patent US7713985B2, “Adenosine Aa2 receptor antagonists” (Schering Corporation, priority 2006, dated 2010)
